The chains behind the UniProt entries cited, without tags or fusion partners. Residues count along the entry.
UniProt P00746, 26-253: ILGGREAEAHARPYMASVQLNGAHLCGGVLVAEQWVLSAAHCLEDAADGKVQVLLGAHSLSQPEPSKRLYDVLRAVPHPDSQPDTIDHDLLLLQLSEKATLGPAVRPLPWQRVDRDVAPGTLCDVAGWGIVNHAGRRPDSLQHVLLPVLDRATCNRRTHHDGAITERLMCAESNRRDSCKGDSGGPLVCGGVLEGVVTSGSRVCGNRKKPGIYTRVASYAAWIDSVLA

In patent US20230022157A1 (Achillion Pharmaceuticals, Inc., priority 2018, published 2023):

Target: T1, Human Factor D (Homo sapiens, UniProt P00746)
T1 construct: purified from human serum; purchased Complement Technology, Inc; host or cells: human serum (natural protein, not recombinant)
Experiment: Human Factor D Assay
Assay type: biochemical
Method: Human Factor D (purified from human serum, Complement Technology, Inc.) at 80 nM final concentration is incubated with test compound at various concentrations for 5 min at room temperature in 50 mM Tris, 1M NaCl, pH 7.5. A synthetic substrate Z-L-Lys-SBzl and DTNB (Ellman's reagent) are added to final concentrations of 100 μM each. […] IC50 values are calculated by nonlinear regression of complement Factor D reaction rates as a function of test compound concentration.

CC(=O)c1nn(CC(=O)N2C[C@H](F)C[C@H]2CNc2cccc(Br)n2)c2ccc(-c3cnc(C)nc3)cc12 [Compound 40, 2-(3-acetyl-5-(2-methylpyrimidin-5-yl)-1H-indazol-1-yl)-1-((2S,4R)-2-(((6-bromopyridin-2-yl)amino)methyl)-4-fluoropyrrolidin-1-yl)ethan-1-one]
IC50: 1 to 10 µM
